Only a part is listed here, and it is no random draw. Inconclusive results are not listed. Calls of active or inactive are those of the source. Calls come from the whole dose curve; as a rule, active = well fitted inhibition curve with a large enough effect; inconclusive = small, poorly fitted or top-dose-only effect; inactive = no such curve, though single readings can be large or run the other way; tested in mouse RAW 264.7 cells.
% is set by controls: 0 for no effect and ±100 for the full control effect.

The experiment can be described thus: qHTS for Inhibitors of Cell Surface uPA Generation. Note: nearly all actives have a fitted effect of over 55% in size. The settings on record: cell surface uPA generation assay; at 38.3 µM (top of the series). The source says:
The overall objective of this project is to perform a quantitative high throughput screen (qHTS) to identify novel compounds that inhibit the generation of cell surface urokinase activity. The urokinase plasminogen activator (uPA) is one of the two primary endogenous systems that mediate plasminogen activation into plasmin. Members of this system, including uPA and its receptor (uPAR), are overexpressed in several malignant tumors. This system plays a major role in adhesion, migration, invasion and metastasis of cancer cells. Small molecule inhibitors of the uPA system will serve as probes to understand the molecular mechanisms of the uPA cascade and better understanding the microenvironmental circumstances that facilitate the activation of plasminogen by uPA, and finally may provide novel candidate agents for anticancer drug therapy.
[…] Upon inhibition of the uPA activation cascade, the subsequent cell surface uPA activity-dependent translocation of LF into the cytoplasm is inhibited. […]
Cultured RAW 264.7 were dispensed into 1536-well clear bottom, white walled tissue culture plates at a density of 4000 cells/well and were incubated overnight (12-16 h) at 37 C in a 5% CO2 incubator. […] Luminescence was detected using a Perkin Elmer ViewLuxtrade mark plate reader. […]
7.Reading plates by ViewLux with an exposure length of 5 seconds.
As to `CCC(=O)N(c1ccccc1)C1(COC)CCN(CCc2cccs2)CC1`, the activity change, negative = inhibition is inactive: -2.35%.

Take `CCC(=O)N(c1ccccc1)C1(COC)CCN(CCn2nnn(CC)c2=O)CC1`: the activity change, negative = inhibition is inactive: 2.12%.

The record behind these values is PubChem BioAssay AID540303 (National Center for Advancing Translational Sciences (NCATS), 2011).
